Experimental data: patent US20260000678A1, “PHARMACEUTICAL COMPOSITION FOR PREVENTING, SUPPRESSING, OR TREATING SYMPTOM ASSOCIATED WITH PSEUDO-ALLERGIC REACTION” (Takasaki University of Health and Welfare, priority 2022, published 2026)

Test system: PMCs
Assay: Degranulation of PMCs (β-hexosaminidase release rate)
Format: cell-based, mouse
Details: wild-type PMCs, 37° C. 10 minutes; DNP-HSA on IgE-sensitized PMCs; C48/80 10 uM; Substance P 100 uM; PAMP-12 10 uM; vancomycin 1 mM; BzATP 10 uM

Q: For “2,4-dinitrophenyl-conjugated human serum albumin [DNP-HSA]”, which “Degranulation of PMCs by the stimulant alone” value is on record?
A: The value was “induced”.
